Consider 1 compound from patent publication US8809619B2, “Knockout mice for a P450 gene cluster” (ITI Scotland Limited, priority 2007, dated 2014).

The mark [1] stands for this setting: Cyp3a cluster KO, RIF 60 mg/kg 3 daily doses, +/- % SD.
The mark [2] stands for this setting: Cyp3a cluster KO, RIF 60 mg/kg IP 3 daily doses, mean +/- SD, n=4.

The structures appear in SMILES notation.

For the compound `CO[C@H]1/C=C/O[C@@]2(C)Oc3c(C)c(O)c4c(O)c(c(/C=N/N5CCN(C)CC5)c(O)c4c3C2=O)NC(=O)/C(C)=C\C=C\[C@H](C)[C@H](O)[C@@H](C)[C@@H](O)[C@@H](C)[C@H](OC(C)=O)[C@@H]1C` [rifampicin], under setting [1], the “Body weight, % mean of corresponding strain control” value is reported as “(102 +/− 11) %” and the “Liver weight, % mean of corresponding strain control” value was “(100 +/− 10) %”. Under setting [2], the Body weight was determined as 27 ± 3 g and the Liver weight is 1.26 ± 0.13 g. Moreover, the Hepatomegaly result (either mouse strain (C57BL/6J, Cyp3a cluster KO), 60 mg/kg 3 daily doses) is “did not result in any hepatomegaly”.
